Read-outs that look alike come from different tables or passages of the source.
What was measured:
HDAC8 = HDAC8 (Homo sapiens (Human), UniProt Q9BY41); test: biochemical
HDAC1 [1] = target: T1, HDAC1 (Homo sapiens (Human), UniProt Q13547); test: biochemical
HDAC1 [2] = target: T1, HDAC1; settings: read-out: HDAC1 IC50

Chains of the proteins cited; added tags and fusions are not shown. Lines headed by an entry give the natural chain unless they say otherwise; changes in a name come on top.
UniProt Q9BY41: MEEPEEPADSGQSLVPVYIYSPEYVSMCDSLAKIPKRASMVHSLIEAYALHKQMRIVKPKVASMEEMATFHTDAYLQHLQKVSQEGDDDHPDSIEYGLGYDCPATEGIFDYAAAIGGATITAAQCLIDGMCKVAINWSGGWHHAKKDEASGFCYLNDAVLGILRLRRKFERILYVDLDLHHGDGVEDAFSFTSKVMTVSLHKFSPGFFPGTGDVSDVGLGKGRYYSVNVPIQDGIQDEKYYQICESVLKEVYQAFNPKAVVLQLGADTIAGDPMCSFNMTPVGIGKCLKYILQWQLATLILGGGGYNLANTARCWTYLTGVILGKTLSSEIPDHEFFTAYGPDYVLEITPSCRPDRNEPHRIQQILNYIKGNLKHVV
UniProt Q13547, whole entry: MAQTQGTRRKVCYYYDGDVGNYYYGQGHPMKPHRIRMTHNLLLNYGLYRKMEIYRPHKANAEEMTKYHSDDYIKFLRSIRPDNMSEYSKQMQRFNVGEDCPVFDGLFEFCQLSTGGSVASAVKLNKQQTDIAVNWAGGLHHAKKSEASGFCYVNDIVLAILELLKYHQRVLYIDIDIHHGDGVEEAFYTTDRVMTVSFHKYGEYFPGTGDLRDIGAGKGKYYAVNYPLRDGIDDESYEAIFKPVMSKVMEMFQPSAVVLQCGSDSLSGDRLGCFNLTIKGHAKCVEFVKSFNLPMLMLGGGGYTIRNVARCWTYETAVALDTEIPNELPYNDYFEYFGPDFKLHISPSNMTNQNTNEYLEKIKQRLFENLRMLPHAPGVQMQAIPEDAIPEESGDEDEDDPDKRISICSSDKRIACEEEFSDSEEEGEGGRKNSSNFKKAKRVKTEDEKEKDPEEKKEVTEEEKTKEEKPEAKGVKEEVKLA

CN1CCN(c2ccc(-c3noc(C(F)(F)F)n3)cn2)C(c2cccc(F)c2)C1=O (racemic) [Example 36, 3-(3-fluorophenyl)-1-methyl-4-(5-(5-(trifluoromethyl)-1,2,4-oxadiazol-3-yl)pyridin-2-yl)piperazin-2-one]
IC50 (HDAC8): 5.3 µM | IC50 (HDAC1 [1]): 16 µM

O=C(C(Cc1ccc(-c2noc(C(F)(F)F)n2)cn1)c1cccc(C(F)(F)F)c1)N1CCS(=O)(=O)CC1 (single isomer, unassigned) [Example 171, (R or S)-1-(1,1-Dioxidothiomorpholino)-3-(5-(5-(trifluoromethyl)-1,2,4-oxadiazol-3-yl)pyridin-2-yl)-2-(3-(trifluoromethyl)phenyl)propan-1-one]
IC50 (HDAC1 [1]): 5.5 µM

O=C(C(Cc1ccc(-c2noc(C(F)(F)F)n2)cn1)c1cccc(C(F)(F)F)c1)N1CCS(=O)(=O)CC1 (stereo not shown) [Example 169, 1-(1,1-Dioxidothiomorpholino)-3-(5-(5-(trifluoromethyl)-1,2,4-oxadiazol-3-yl)pyridin-2-yl)-2-(3-(trifluoromethyl)phenyl)propan-1-one]
IC50 (HDAC1 [2]): 5.2 µM

Reference: US11066396B2 (priority 2016, dated 2021)
